Laboratory results reported in publication PMC8619914, “Development of Novel Peptides for the Antimicrobial Combination Therapy against Carbapenem-Resistant Acinetobacter baumannii Infection” (Pharmaceutics, 2021).

Key:
E. coli = settings: 50% human serum in MH medium, 16 h, 37 °C, absorbance 600 nm; measure of serum stability
Protocol: Antibacterial activity of PapMA-3 in combination with imipenem was measured against CRAB C1 in the presence of 50% human serum. The treated cells were incubated for 16 h at 37 °C, and the absorbance at 600 nm was measured using a SpectraMAX microplate reader (Molecular Devices).

[1] = tested on: Staphylococcus aureus (KCTC 1621); settings: MH media, 2 × 10^5 CFU·mL^−1, 37 °C, 16 h, absorbance 600 nm
Source text: (§1) The Gram-negative bacterial strain Escherichia coli (KCTC 1682) and Gram-positive bacterial strain Staphylococcus aureus (KCTC 1621) were purchased from the Korean Collection for Type Cultures (Jeongeup, Korea). Acinetobacter baumannii (KCCM 40203) were purchased from Korea Culture Center of Microorganisms (Seoul, Korea). Additionally, five carbapenem-resistant Acinetobacter baumanii C1–C5 (CRAB C1–C5), which have the OXA-23 gene with carbapenem-resistance were collected from the patients with CRAB bacteremia, who presented symptoms and signs of infection at Korea University Anam Hospital (Seoul, Korea) (IRB registration no. 2020AN0157). The minimum inhibitory concentrations (MIC) of the AMP and antibiotics against the various bacterial strains were assessed using the serial dilution method on Muller–Hinton (MH) media, as described previously. […] Absorbance at 600 nm was measured using a SpectraMAX microplate reader (Molecular Devices, San Jose, CA, USA).
(§2) Measurement of the minimum inhibitory concentrations (MIC) was conducted to determine the effect of the hydrophobicity of each antimicrobial peptide on its antimicrobial activity. MIC was defined as the minimum concentration that killed more than 99% of bacteria; it was measured against two standard Gram-negative bacteria (E. coli and A. baumanii), five clinically isolated CRAB (C1–C5), and one Gram-positive bacteria (S. aureus).

[2] = tested on: Escherichia coli (KCTC 1682); settings: 16 h, absorbance 600 nm
Source text: as §1, §2

In the case of `CC[C@H](C)[C@H](NC(=O)CN)C(=O)NCC(=O)N[C@@H](C)C(=O)N[C@H](C(=O)N[C@@H](CC(C)C)C(=O)N[C@@H](CCCCN)C(=O)N[C@H](C(=O)N[C@@H](CC(C)C)C(=O)N[C@H](C(=O)N[C@H](C(=O)NCC(=O)N[C@@H](CC(C)C)C(=O)N1CCC[C@H]1C(=O)N[C@@H](C)C(=O)N[C@@H](CC(C)C)C(=O)N[C@H](C(=O)N[C@@H](CO)C(=O)N[C@@H](Cc1c[nH]c2ccccc12)C(=O)N[C@H](C(=O)N[C@@H](CCCCN)C(=O)N[C@@H](CCCNC(=N)N)C(=O)N[C@@H](CCCCN)C(=O)N[C@@H](CCCNC(=N)N)C(=O)N[C@@H](CCC(N)=O)C(=O)N[C@@H](CCC(N)=O)C(N)=O)[C@@H](C)CC)[C@@H](C)CC)[C@@H](C)O)[C@@H](C)O)C(C)C)C(C)C` [melittin], the “Minimum Inhibitory Concentration, E. coli, + Serum (50%)” value (E. coli) was 256 µg/mL, the “Minimum Inhibitory Concentration, S.aureus” value [1] was 16 µg/mL and the “Minimum Inhibitory Concentration, E. coli, MH Media” value ([2]; MH media without serum, 37 °C) was 8 µg/mL. For the same compound, the “Minimum Inhibitory Concentration, E. coli” value ([2]; MH media, 2 × 10^5 CFU·mL^−1, 37 °C, MIC kills more than 99% of bacteria) was 8 µg/mL.
